Article PMC6372279 (eLife, 2019)

Amino acid sequences for entries named in this document (tags omitted). Residues count along the entry.
UniProt P06213, 28-758 limits assumed: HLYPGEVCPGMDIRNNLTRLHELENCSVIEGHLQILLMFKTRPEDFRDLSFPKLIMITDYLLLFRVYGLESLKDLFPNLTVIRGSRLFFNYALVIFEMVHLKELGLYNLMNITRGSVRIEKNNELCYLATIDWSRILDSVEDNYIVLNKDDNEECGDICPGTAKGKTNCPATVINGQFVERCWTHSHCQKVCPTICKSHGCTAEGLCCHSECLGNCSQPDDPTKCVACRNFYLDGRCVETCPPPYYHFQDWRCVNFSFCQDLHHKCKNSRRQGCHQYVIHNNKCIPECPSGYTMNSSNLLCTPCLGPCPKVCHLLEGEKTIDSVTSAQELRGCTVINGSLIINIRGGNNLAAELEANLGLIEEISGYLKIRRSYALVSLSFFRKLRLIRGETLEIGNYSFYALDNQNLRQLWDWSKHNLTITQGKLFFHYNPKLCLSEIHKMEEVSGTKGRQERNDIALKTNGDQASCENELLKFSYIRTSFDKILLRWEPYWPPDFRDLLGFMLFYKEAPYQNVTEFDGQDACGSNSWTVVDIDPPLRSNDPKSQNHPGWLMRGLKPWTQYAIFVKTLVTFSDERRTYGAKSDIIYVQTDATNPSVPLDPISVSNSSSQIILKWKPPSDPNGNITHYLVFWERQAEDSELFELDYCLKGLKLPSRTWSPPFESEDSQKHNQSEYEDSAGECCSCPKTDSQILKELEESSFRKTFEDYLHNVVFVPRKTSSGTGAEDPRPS
UniProt P06213, 763-1382 partner limits assumed: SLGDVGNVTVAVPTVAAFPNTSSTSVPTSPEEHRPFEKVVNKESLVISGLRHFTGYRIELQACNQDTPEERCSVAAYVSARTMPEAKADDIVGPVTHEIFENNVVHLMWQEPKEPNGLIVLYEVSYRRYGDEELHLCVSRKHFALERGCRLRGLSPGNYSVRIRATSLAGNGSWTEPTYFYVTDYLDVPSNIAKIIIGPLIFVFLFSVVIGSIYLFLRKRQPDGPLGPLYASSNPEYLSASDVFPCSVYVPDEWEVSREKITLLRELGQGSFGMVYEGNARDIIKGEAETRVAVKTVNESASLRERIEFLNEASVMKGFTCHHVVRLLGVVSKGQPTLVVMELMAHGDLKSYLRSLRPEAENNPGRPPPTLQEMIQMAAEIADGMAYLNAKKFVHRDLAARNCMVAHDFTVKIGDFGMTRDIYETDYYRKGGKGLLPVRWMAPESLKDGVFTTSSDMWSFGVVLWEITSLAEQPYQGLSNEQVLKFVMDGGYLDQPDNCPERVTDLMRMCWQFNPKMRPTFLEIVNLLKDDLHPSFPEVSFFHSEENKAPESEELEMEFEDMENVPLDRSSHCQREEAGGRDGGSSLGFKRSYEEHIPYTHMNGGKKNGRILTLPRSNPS

Molecular target: human insulin receptor isoform B (hIR-B) (Homo sapiens, UniProt P06213)
Assay: biochemical
Assay type: binding

## CC[C@H](C)[C@@H]1NC(=O)[C@H](CC(C(=O)O)C(=O)O)NC(=O)[C@H](CO)NC(=O)CNC(=O)[C@@H](NC(=O)[C@H](CCCNC(=N)N)NC(=O)[C@H](Cc2c[nH]cn2)NC(=O)[C@H](CCCCN)NC(=O)[C@@H]2C[C@@H](O)CN2C(=O)[C@@H](NC(=O)[C@H](CC(=O)O)NC(=O)[C@H](Cc2ccccc2)NC(=O)[C@@H](N)[C@@H](C)O)[C@@H](C)O)CSSC[C@@H]2NC(=O)[C@@H](NC(=O)[C@H](Cc3c[nH]cn3)NC(=O)[C@H](CC(C(=O)O)C(=O)O)NC(=O)[C@@H](NC(=O)[C@@H](NC(=O)CN)C(C)C)C(C)C)CSSC[C@H](NC(=O)[C@@H]3CCCN3C(=O)[C@H](CCCNC(=N)N)NC(=O)[C@H](Cc3c[nH]cn3)NC2=O)C(=O)N[C@@H](CO)C(=O)N[C@@H](CC(N)=O)C(=O)N[C@@H](C)C(=O)N[C@@H](CCC(=O)O)C(=O)N[C@@H](Cc2ccccc2)C(=O)N[C@@H](CCCCN)C(=O)N[C@@H](CCCCN)C(=O)N[C@@H](Cc2ccc(O)cc2)C(=O)N[C@H](C(N)=O)CSSC[C@@H](C(=O)N[C@@H](Cc2ccc(O)cc2)C(=O)N[C@@H](CCCNC(=N)N)C(=O)O)NC(=O)[C@H](CC(C)C)NC(=O)[C@H](CC(=O)O)NC(=O)[C@H](CCSC)NC(=O)[C@H](Cc2ccc(O)cc2)NC(=O)[C@H](CO)NC(=O)[C@H](CC(N)=O)NC(=O)[C@H]([C@@H](C)O)NC1=O [Con-Ins G1]
  IC50: 11 nM
